From ChEMBL document CHEMBL3616409, “Optimization of a small molecule probe that restores e-cadherin expression” (Bioorg Med Chem Lett, 2015)

Legend:
[1] = Restoration of e-cadherin expression in human SW620 cells at 10 uM by in-cell-western assay relative to control; format: functional, cell-based; conditions: SW-620
How it was run: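 In-Cell-Western immunofluorescence read-out of e-cadherin in SW620 colon carcinoma cells after treatment at 10 μM; value is average fold change from two assessments.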

[2] = Restoration of e-cadherin expression in human SW620 cells by in-cell-western assay; format: functional, cell-based; conditions: SW-620

Row | Structure (SMILES) | fold change (FC) [1] | EC50 [2] [µM]
1 | O=C(Cc1c[nH]c2ccccc12)NCCCCNC(=O)c1cc(-c2ccccc2)on1 | 4.2 | –
2 | Nc1cncc(C(=O)NCCCCNC(=O)c2cc(-c3cccs3)on2)n1 | 4.26 | –
3 | O=C(NCCCCNC(=O)c1cccnc1O)c1cc(-c2ccccc2)on1 | – | 3.1
4 | Cc1ccc(C(=O)NCCCCNC(=O)c2cc(-c3ccccc3)on2)c(O)n1 | 4.58 | –
5 | [N-]=[N+]=Nc1ccnc(NCCCNC(=O)c2cc(-c3ccccc3)on2)n1 | 15.9 | –
6 | O=C(NCCCNC(=O)c1nccs1)c1cc(-c2ccccc2)on1 | 8.98 | –
7 | O=C(NCCCCNC(=O)c1cc(-c2ccccc2)on1)c1cccnc1 | 4.43 | –
8 | O=C(NCCCCc1ccncc1)c1cc(-c2ccco2)on1 | 4.36 | –
9 | N#Cc1ccnc(NCCCNC(=O)c2cc(-c3ccccc3)on2)c1 | 5.77 | –
10 | CC(=O)n1cc(CNCCCNC(=O)c2cc(-c3ccccc3)on2)c2ccccc21 | 6.09 | –
11 | O=C(NCCCCNC(=O)c1ccc(Cl)o1)c1cc(-c2ccccc2)on1 | 4.43 | –
12 | O=C(Cc1ccccc1O)NCCCNC(=O)c1cc(-c2ccccc2)on1 | 3.4 | –
13 | O=C(NCCCCNC(=O)c1cc(-c2cccs2)on1)c1cccnc1 | 4.55 | –
14 | O=C(NCCCNC(=O)c1cc(-c2ccccc2)on1)c1ccncc1 | 2.79 | –
